# Measured values: PubChem BioAssay (NCI)
# Where “and” joins values, the source holds several entries; their conditions need not be identical. Equal entries are not always repeated. Only a part is listed here, and it is no random draw.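 In brief: 96-well plates, 48 h treatment, single concentration, percent growth endpoint.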 Calls of active or inactive are those of the source. The calls were made as follows: active = growth percent below 10; inactive = the rest.
# Tested on: OVCAR-4 ovarian
# Test: NCI-60 one-dose screen, 48 h (100 = growth as untreated, 0 = no growth, -100 = all killed)
# Conditions: 10 µM unless noted
row,Structure (SMILES),growth
1,O=[N+]([O-])c1ccc(CCCCCCc2ccc([N+](=O)[O-])cc2[N+](=O)[O-])c([N+](=O)[O-])c1,inactive: 81.7%
2,CCSC(O)C(Cl)(Cl)Cl (configuration not stated),inactive: 117%
3,O=[N+]([O-])c1cc(Cl)cc([N+](=O)[O-])c1O,inactive: 106%
4,OP1OCCO1,inactive: 107%
5,N#CC(C#N)=C(C#N)N(CCCl)CCCl,inactive: 101%
6,CC[C@H](C)[C@@H]1NC(=O)/C(=C(\C)O)C1=O,inactive: 109%

# Tested on: SK-OV-3 ovarian
# Test: as above
# Conditions: 10 µM unless noted
row,Structure (SMILES),growth
1,CC1CCNP(=O)(N(CCCl)CCCl)O1 (configuration not stated),inactive: 104%
2,CCN(CCCl)CC1OC(O)C(O)C1O (configuration not stated),inactive: 109%
3,CN(CCCl)/N=N/c1nc2nc[nH]c(=O)c2[nH]1,inactive: 94.9%
4,Nc1ccc(N(CCCl)CCCl)cc1,inactive: 82.4%
5,c1cc(-c2nn[nH]n2)ccc1-c1nn[nH]n1,inactive: 99.3%
6,CCCC1OP(N)(=O)OCC1CC (configuration not stated),inactive: 101% and inactive: 107%
7,CCOP(=S)(OCC)OCC,inactive: 113%
8,CCOP(=S)(OCC)SCCCl,inactive: 92.2%
9,CN(C)P1(Cl)=NP(Cl)(N(C)C)=NP(Cl)(N(C)C)=N1 (configuration not stated),inactive: 89.9%
10,Nc1ccc(CCCCOc2ccccc2)cc1,inactive: 106%
11,O=[N+]([O-])c1cccc(Oc2ccc([N+](=O)[O-])cc2[N+](=O)[O-])c1,inactive: 16.5%
12,CCN(CC)[P+](c1ccc(OC)cc1OC)(N(CC)CC)N(CC)CC,inactive: 64.2%
13,O=C(Nc1ccc([N+](=O)[O-])cc1)N(CCBr)CCBr,inactive: 105%
14,O=P1(N(CCCl)CCCl)Nc2ccccc2N1,inactive: 111%
15,ClCCNCc1ccccc1,inactive: 119%
16,O=C(O)/C=C\c1cccc(N(CCCl)CCCl)c1,inactive: 113%
17,O=C(O[C@H]1CN2CCC1CC2)C1NCc2ccccc2[C@@H]1c1ccccc1 (some centres not stated),inactive: 98.3%
18,CC(=O)Nc1ccc([As](=O)(O)O)c(O)c1,inactive: 104%
19,ClCCN1CCNCC1,inactive: 105%

row,Structure (SMILES),growth
1,Cc1cc([N+](=O)[O-])cc([N+](=O)[O-])c1O,inactive: 99.9%
2,O=C(OC1CN2CCC1CC2)c1ccccc1 (configuration not stated),inactive: 115%
3,O=C(c1ccc([N+](=O)[O-])cc1)N(CCCl)CCCl,inactive: 101%
4,CCCCCCCCCCNP(=S)(Cl)Cl,inactive: 118%
5,COc1cc([N+](=O)[O-])c(Nc2ccc(Cl)cc2[N+](=O)[O-])c([N+](=O)[O-])c1,inactive: 101%
6,O=[As]c1ccc(S(=O)(=O)Nc2ccccc2)cc1 (configuration not stated),inactive: 121%
7,Cc1ccc(S(=O)(=O)CN(CCCl)CCCl)cc1,inactive: 97.9%
8,CCCN(CCCl)C1c2ccccc2-c2ccccc21,inactive: 92.1%
9,CC(Cl)CN(CC(C)Cl)C(=O)c1ccccc1 (configuration not stated),inactive: 114%
10,CC(Cl)CN(CC(C)Cl)C(=O)OCC(N)C(=O)O (configuration not stated),inactive: 94.8% and inactive: 97.2%
11,C[As](=O)(O)c1cccc(C(=O)O)c1,inactive: 102%
12,Cc1ccc(S(=O)(=O)N(CCCN)CCCc2c(C)nc(N)[nH]c2=O)cc1,inactive: 105%
13,Cn1c(COc2ccc([N+](=O)[O-])cc2[N+](=O)[O-])cnc1[N+](=O)[O-],inactive: 88.8%
14,O=[N+]([O-])c1ccc(CCCCCCc2ccc([N+](=O)[O-])cc2[N+](=O)[O-])c([N+](=O)[O-])c1,inactive: 111%
15,CCSC(O)C(Cl)(Cl)Cl (configuration not stated),inactive: 109%
16,O=[N+]([O-])c1cc(Cl)cc([N+](=O)[O-])c1O,inactive: 97.2%
17,OP1OCCO1,inactive: 108%
18,N#CC(C#N)=C(C#N)N(CCCl)CCCl,inactive: 115%
19,CC[C@H](C)[C@@H]1NC(=O)/C(=C(\C)O)C1=O,inactive: 98.1%

# Tested on: IGROV1 ovarian
# Test: as above
# Conditions: 10 µM unless noted
row,Structure (SMILES),growth
1,CC1CCNP(=O)(N(CCCl)CCCl)O1 (configuration not stated),inactive: 103%
2,CCN(CCCl)CC1OC(O)C(O)C1O (configuration not stated),inactive: 97.2%
3,CN(CCCl)/N=N/c1nc2nc[nH]c(=O)c2[nH]1,inactive: 107%
4,Nc1ccc(N(CCCl)CCCl)cc1,inactive: 67.2%
5,c1cc(-c2nn[nH]n2)ccc1-c1nn[nH]n1,inactive: 120%
6,CCCC1OP(N)(=O)OCC1CC (configuration not stated),inactive: 113% and inactive: 104%
7,CCOP(=S)(OCC)OCC,inactive: 109%
8,CCOP(=S)(OCC)SCCCl,inactive: 102%
9,CN(C)P1(Cl)=NP(Cl)(N(C)C)=NP(Cl)(N(C)C)=N1 (configuration not stated),inactive: 107%
10,Nc1ccc(CCCCOc2ccccc2)cc1,inactive: 87.9%
11,O=[N+]([O-])c1cccc(Oc2ccc([N+](=O)[O-])cc2[N+](=O)[O-])c1,active: -26.1%
12,CCN(CC)[P+](c1ccc(OC)cc1OC)(N(CC)CC)N(CC)CC,inactive: 49.2%
13,O=C(Nc1ccc([N+](=O)[O-])cc1)N(CCBr)CCBr,inactive: 106%
14,O=P1(N(CCCl)CCCl)Nc2ccccc2N1,inactive: 111%
15,ClCCNCc1ccccc1,inactive: 107%
16,O=C(O)/C=C\c1cccc(N(CCCl)CCCl)c1,inactive: 70.9%
17,O=C(O[C@H]1CN2CCC1CC2)C1NCc2ccccc2[C@@H]1c1ccccc1 (some centres not stated),inactive: 92.9%
18,CC(=O)Nc1ccc([As](=O)(O)O)c(O)c1,inactive: 96.3%
19,ClCCN1CCNCC1,inactive: 118%

row,Structure (SMILES),growth
1,Cc1cc([N+](=O)[O-])cc([N+](=O)[O-])c1O,inactive: 116%
2,O=C(OC1CN2CCC1CC2)c1ccccc1 (configuration not stated),inactive: 121%
3,O=C(c1ccc([N+](=O)[O-])cc1)N(CCCl)CCCl,inactive: 103%
4,CCCCCCCCCCNP(=S)(Cl)Cl,inactive: 105%
5,COc1cc([N+](=O)[O-])c(Nc2ccc(Cl)cc2[N+](=O)[O-])c([N+](=O)[O-])c1,inactive: 69.4%
6,O=[As]c1ccc(S(=O)(=O)Nc2ccccc2)cc1 (configuration not stated),inactive: 46%
7,Cc1ccc(S(=O)(=O)CN(CCCl)CCCl)cc1,inactive: 123%
8,CCCN(CCCl)C1c2ccccc2-c2ccccc21,inactive: 102%
9,CC(Cl)CN(CC(C)Cl)C(=O)c1ccccc1 (configuration not stated),inactive: 107%
10,CC(Cl)CN(CC(C)Cl)C(=O)OCC(N)C(=O)O (configuration not stated),inactive: 109%
11,C[As](=O)(O)c1cccc(C(=O)O)c1,inactive: 98.6%
12,Cc1ccc(S(=O)(=O)N(CCCN)CCCc2c(C)nc(N)[nH]c2=O)cc1,inactive: 104%
13,Cn1c(COc2ccc([N+](=O)[O-])cc2[N+](=O)[O-])cnc1[N+](=O)[O-],inactive: 103%
14,O=[N+]([O-])c1ccc(CCCCCCc2ccc([N+](=O)[O-])cc2[N+](=O)[O-])c([N+](=O)[O-])c1,inactive: 99.5%
15,CCSC(O)C(Cl)(Cl)Cl (configuration not stated),inactive: 96.9%
16,O=[N+]([O-])c1cc(Cl)cc([N+](=O)[O-])c1O,inactive: 107%
17,OP1OCCO1,inactive: 100%
18,N#CC(C#N)=C(C#N)N(CCCl)CCCl,inactive: 83.7%
19,CC[C@H](C)[C@@H]1NC(=O)/C(=C(\C)O)C1=O,inactive: 121%
